Data reported in patent EP1310250A1, “Use of the compound 2-methoxyphenyl-1-methyl-5P-methylbenzoyl-pyrrol-2-acetamido acetate for the production of an antiinflammatory drug with prevention of gastric hypersecretion and renal impairment” (MEDOSAN Ricerca S.r.l., priority 1997, dated 1999).

How the values were obtained:
[1] = system: carrageenin-induced paw oedema; test: Determination of ID50, carrageenin-induced paw oedema; format: in vivo, rat; settings: five times the oral ID50 for oedema inhibition, 2 h after carrageenin
Protocol: ID50, relative to the products under examination (considered in table 1), has been evaluated using the anti-inflammatory response to carrageenin-induced paw oedema (according to Wong et al, J Pharmacol Exp, 1973:1855; pages 127-138). The products, suspended in 1% CMC, were administered orally in a total volume of 5 ml/rat. 1 h later, 0.1 ml of 1% carrageenin sterile solution was injected into the hind subplantar aponeurosis. Volume of the paw was measured immediately prior to injection of the phlogogen and 2 h thereafter, by means of a plethysmograph. The percentage of inhibition of oedema was calculated as follows: 1 - ΔV treated/ΔV control x 100 [formula] where ΔV = final V - initial V.
Three doses have been used for each NSAID and the ID50, which indicates the quantity in mg/kg inhibiting oedema by 50%, has been determined.

rat gastric mucosa = settings: male, Wistar, in vivo, po, 4 days
Protocol: The animals entered in the trial, randomized and divided into groups of 6 rats each, were fasted for 16 h prior to treatment, with access to water ad libitum. They were re-fed 1 h after drug administration. The compound 2-methoxyphenyl-1-methyl-5p-methylbenzoyl-pyrrol-2-acetamido acetate and the other reference NSAIDs, suspended in 1% carboxymethylcellulose (CMC) solution, were orally administered by gastric gavage in a volume of 6ml/kg for four consecutive days. Controls received the vehicle in the same way as the treated animals. 4 h after the last administration the animals were killed by ether overdose; the stomachs were removed, rinsed with 10 ml of saline and immersed in 1% formalin. They were later opened along the greater curvature and the mucosa examined for lesions.
The seriousness of the lesion was quantified according to a scale graduated from 1 to 3 according to the size of the lesions: 1= ulcer < 1mm; 2= ulcer 1-2mm; 3= ulcer > 2mm. […] The gastric lesions were evaluated by two independent investigators under blind conditions according to Main & Whittle method (BJ Pharmac 1975:53; p. 217-224).
Since the average daily dose in man (for the anti-inflammatory activity) is 600 mg, the comparative efficacious dose in the rat is in the ratio of 12:1. […] To evaluate the "ratio to rat dosage" the ID50 has been determined using the carrageenin-induced oedema as inflammatory test. […]

**Q.** Which results are given for `CS(=O)(=O)Nc1ccc([N+](=O)[O-])cc1Oc1ccccc1` [Nimesulide, nimesulide]?
**A.** Ratio to rat dosage (mg/kg) (ID50 mg/kg x5) [1]: 28.5 mg/kg; Gastrolesive index (rat gastric mucosa): 21.3
